Assay outcomes from PubChem BioAssay.
A selection: hits, their analogues and other compounds. The true share with any hit is near 0.46%.
HCMV UL50-53 inh: inhibitors of HCMV UL50-UL53 nuclear egress complex interaction. HTRF UL50-UL53 interaction, normalized percent inhibition. inhibition, % (test concentration not listed). 190,000 compounds, 0.15% hits; in the data active = inhibition above about 27%, passing the limit was not always enough
GIV-Gai inh: blocks GIV peptide binding to rat Galpha-i3. P08753. Galpha-i3/FITC-GIV peptide fluorescence polarization, 90 min; stronger effect = lower value; scaled: aluminum fluoride 0%, vehicle 100%. percent of control (FP), % (test concentration not listed). 0.42% of 210,000 active. AID 1224905;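 active = replicate mean at 85% of control or lower, very high polarization wells dropped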;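 also: wells of about 15 µL received 100 nL stock; the first replicate is given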
GIV Gai FP conf: GIV-Galpha-i3 inhibition, FP confirmation; shares compounds with GIV-Gai inh; FITC-GIV peptide binding to Galphai3, fluorescence polarization; hits give low values; fluorescence polarization, mP at 100 µM; 580 compounds, 38% hits; AID 1259350;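 active = inhibition score of 15 or more, meaning 100 minus mean polarization as percent of control over three replicates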;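 also: lower mP means peptide displaced from Galphai3 so more inhibition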
GIV-Gai AS conf: GIV-Galpha-i3 inhibition, AlphaScreen confirmation; shares compounds with GIV-Gai inh; AlphaScreen Galphai3-GIV binding, purified proteins, 90 min; hits give low values; AlphaScreen counts at 100 µM; 580 compounds, 39% hits; AID 1259351;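 active = inhibition score at or above a set limit, where the score is 100 minus the three-replicate mean percent of control signal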
An asterisk follows results filed as active; . = no result given.

SMILES | HCMV UL50-53 inh | GIV-Gai inh | others
O=C1NC(=O)C(=Cc2cccc(OCCOc3ccc([N+](=O)[O-])cc3)c2)C(=O)N1 | 37* | 112
O=C1NC(=O)C(=Cc2ccc(OCCOc3ccc([N+](=O)[O-])cc3)cc2)C(=O)N1 | -31 | 101
CC(C)Nc1nc(N2CCCC2)nc(N2CC3CC(C2)c2cccc(=O)n2C3)n1 (stereo not given) | -5 | .
CC(C)CCn1c(=O)c(C(=O)Nc2cccc(Br)c2)c(O)c2ccccc21 | . | 104
Cc1ccc(NC(=S)NC2CN3CCC2CC3)cc1 (stereo not given) | -42 | .
Cc1cc(Nc2ccc(N3CCCC3)cc2)n2c(nc3ccccc32)c1C#N | -41 | 101
Cc1c(C#N)c2nc3ccccc3n2c(=O)/c1=C\Nc1ccc(N2CCOCC2)c(Cl)c1 | . | 57*
CCCCc1ncc(CNCCc2c(C)[nH]c3ccc(OC)cc23)[nH]1 | -13 | 21*
Cc1[nH]c2ccccc2c1CCNCc1ccco1 | 8 | .
CCOC(=O)C1=C(NC(=O)CC)c2ccccc2CC12CCCCC2 | . | 107
Cc1cc(/C=C2\C(=O)NC(=O)N(c3ccc(F)cc3)C2=O)c(C)n1-c1ccc(C(=O)O)cc1 | -18 | 102
Cc1ccc(N2C(=O)NC(=O)/C(=C\c3cc(C)n(-c4cc(C(=O)O)cc(C(=O)O)c4)c3C)C2=O)cc1 | 32* | 106
Cc1ccccc1-n1c(/C=C/c2c(C)[nH]c3ccccc23)nc2ccccc2c1=O | -12 | 113
Cc1[nH]c2ccccc2c1/C=C/c1nc2ccccc2c(=O)n1-c1ccccc1 | 7 | -70*
COc1ccc(CN)cc1OC | -4 | .
O=C(Nc1ccc2c(c1)OCCO2)c1cccn(Cc2c(F)cccc2Cl)c1=O | . | 109
CN1C(=O)NC(=O)/C(=C\C=C\c2ccco2)C1=O | . | 95
O=C1NC(=S)NC(=O)C1=C/C=C/c1ccco1 | 78* | 110
COc1ccc(CN2C(=O)NC(=O)/C(=C\c3cccc(OC)c3OC)C2=O)cc1 | 78* | 98
COc1ccc(-n2c(C)cc(/C=C3/C(=O)NC(=O)N(Cc4ccco4)C3=O)c2C)cc1 | 1 | 94
C[C@]12CCC3C(CCC4=CC(=O)CC[C@@]43C)C1CCC2O (stereo not given in full) | -41 | .
CC1CN(C2(n3nnc4ccccc43)CCC(C(C)(C)C)CC2)CC(C)O1 (stereo not given) | . | 108
O=c1[nH]c(CN2CC=C(c3ccccc3)CC2)nc2ccccc12 | -41 | .
CC1(C)CC(=O)C(C2(O)C(=O)NC(=O)NC2=O)=C(O)C1 | 63* | 99
CCOc1ccc(-n2c(CN(CC)CC)nc3ccccc3c2=O)cc1 | 1 | 100
SMILES | HCMV UL50-53 inh | GIV-Gai inh | others
COc1cc(C=C2C(=O)NC(=O)NC2=O)ccc1OCc1ccc(C(=O)O)cc1 | 20 | 111
O=C1NC(=O)C(=Cc2ccc(OCc3ccc(C(=O)O)cc3)c(Br)c2)C(=O)N1 | 63* | 101
CN1C(=O)C(=Cc2coc3ccccc3c2=O)C(=O)N(C)C1=O | 39* | 103
CC(c1ccccc1)N1C(=O)NC(=O)/C(=C/c2coc3ccccc3c2=O)C1=O (stereo not given) | . | 105
Cc1cc(OC(=O)N(C)C)nc(SCC(=O)C(C)(C)C)n1 | -5 | 100
COc1cccc(C=C2C(=O)NC(=O)NC2=O)c1 | 14 | .
CN1/C(=C\C=C2C(=O)NC(=O)NC2=O)C(C)(C)c2ccccc21 | -78 | 29*
CN1CCN(c2ccc(-c3ccno3)cc2)CC1 | -2 | .
CN1C(=O)C(=Cc2cn(CC(=O)N3CCCC3)c3ccccc23)C(=O)N(C)C1=O | . | 103
COCCNC(=O)Cn1cc(C=C2C(=O)N(C)C(=O)N(C)C2=O)c2ccccc21 | -6 | 96 | GIV Gai FP conf=72;GIV-Gai AS conf=40853
CCS(=O)(=O)Nc1cccc(C(=C2CCCCC2)c2cnc[nH]2)c1 | -25 | 87 | GIV Gai FP conf=77;GIV-Gai AS conf=6784*
O=C(CN1CCCN(Cc2ccccc2)S1(=O)=O)NC1CCCC1 | 15 | 105
COC(=O)c1ccc(N2CCN(C)CC2)c(NC(C)=O)c1 | -18 | 104
CCc1ccc(N2C(=O)/C(=C/c3ccc(OCC(=O)O)c(Br)c3)C(=O)NC2=S)cc1 | -30 | 57* | GIV Gai FP conf=34*;GIV-Gai AS conf=3342*
C=CCN1C(=O)NC(=O)/C(=C/c2ccc(OCC(=O)O)c(OCC)c2)C1=O | 4 | 97
O=C(O)CSC(c1ccccc1)c1ccccc1 | -24 | .
COc1cc2c(no[n+]2[O-])n2nnnc12 | -96 | 80* | GIV Gai FP conf=68;GIV-Gai AS conf=11443*
CN1C(=O)C(=C/C=C/c2ccccc2)C(=O)N(C)C1=O | 9 | 81* | GIV Gai FP conf=74;GIV-Gai AS conf=6725*
C=CCN1C(=O)NC(=O)/C(=C/C=C/c2ccccc2)C1=O | 4 | 155
C#CCN1CCC2=C(C1)c1c(O)cc(C(C)CCCc3ccc(F)cc3)cc1OC2(C)C (stereo not given) | . | 108
S=P(Nc1ccccc1)(Nc1ccccc1)Nc1ccccc1 | . | 108
CC(C)n1cnnc1C1CCCNC1 (stereo not given) | . | 110
N#CC1=CN(c2ccc(F)c(F)c2)c2cc(F)ccc2S1(=O)=O | . | 102
Cc1nc(S(=O)(=O)N2CCCCC2c2cccnc2)cn1C (stereo not given) | -4 | 85* | GIV Gai FP conf=58;GIV-Gai AS conf=42642
Nc1ccc(S(=O)(=O)N2CCCCC2c2cccnc2)cc1 (stereo not given) | -16 | 103

Random excerpt: seven records from the list
SMILES | HCMV UL50-53 inh | GIV-Gai inh | others
COc1ccc(CN2C(=O)NC(=O)/C(=C\c3cccc(OC)c3OC)C2=O)cc1 | 78* | 98
Cc1[nH]c2ccccc2c1CCNCc1ccco1 | 8 | .
O=C(O)CSC(c1ccccc1)c1ccccc1 | -24 | .
Cc1ccccc1-n1c(/C=C/c2c(C)[nH]c3ccccc23)nc2ccccc2c1=O | -12 | 113
C[C@]12CCC3C(CCC4=CC(=O)CC[C@@]43C)C1CCC2O (stereo not given in full) | -41 | .
Cc1nc(S(=O)(=O)N2CCCCC2c2cccnc2)cn1C (stereo not given) | -4 | 85* | GIV Gai FP conf=58;GIV-Gai AS conf=42642
CN1CCN(c2ccc(-c3ccno3)cc2)CC1 | -2 | .

(listing goes on)
SMILES | HCMV UL50-53 inh | GIV-Gai inh | others
O=[N+]([O-])c1ccc2c(c1)C1C(Cl)C(Sc3ccccc3[N+](=O)[O-])CC1C(c1ccc(Cl)cc1)N2 (stereo not given) | . | 120
COc1c(Cl)cc(Cl)cc1-c1c(C#N)c(N)n2c(nc3ccccc32)c1C#N | . | 102
Cc1cc(C)c2oc(-c3ccc(N/C=c4\c(C)c(C#N)c5nc6ccccc6n5c4=O)cc3)nc2c1 | 3 | 73* | GIV Gai FP conf=80;GIV-Gai AS conf=44971
c1ccc2c(NC3=NCCS3)cccc2c1 | 18 | 83* | GIV Gai FP conf=61;GIV-Gai AS conf=35407*
Cc1ccccc1NC1=NCCS1 | -29 | .
NCCSc1c[nH]c2ccccc12 | -10 | .
CCn1nc(-c2cccnc2)nc2c(=O)n(C)c(=O)nc1-2 | 71 | 46* | GIV Gai FP conf=40*;GIV-Gai AS conf=42657
CCN(CC)C(=O)c1ccc(NC(=O)Cn2nc(-c3ccccc3)c3ccccc3c2=O)cc1 | 4 | 107
CCn1nc(-c2ccccc2)nc2c(=O)n(C)c(=O)nc1-2 | 88* | 19* | GIV Gai FP conf=16*;GIV-Gai AS conf=24179
O=C(NCc1ccco1)N(Cc1ccc2c(c1)OCO2)C1CCN(Cc2ccccc2)CC1 | -17 | 99
CC(CCCC(C)(C)O)CCNC(C)Cc1ccsc1 (stereo not given) | -5 | .
Cc1cccc(Cn2cccc(C(=O)Nc3nc(C)cs3)c2=O)c1 | . | 109
Cc1[nH]c2ccccc2c1C1=CCN(C)CC1 | -28 | 97
CC[N+](CC)=c1ccc2ccc(O)cc2o1 | -31 | 63* | GIV Gai FP conf=43*;GIV-Gai AS conf=33013*
Cc1ccc(C(C)Nc2ncnc3sccc23)cn1 (stereo not given) | -5 | .
O=C1NC(=O)C(=Cc2ccc(N3CCOCC3)cc2)C(=O)N1 | -2 | 102
CC(C)c1ccc(C=C2C(=O)NC(=O)NC2=O)cc1 | . | 32* | GIV Gai FP conf=28*;GIV-Gai AS conf=33706
